Shown are actives, neighbours in structure and some others; about 2.3% of the full set was active somewhere.
GRP78 ERSR act: induces the endoplasmic reticulum stress response in human glioma cells; U87-MG GRP78 promoter luciferase reporter, 16 h; Potency, µM, without a hit: at the top dose activation, hits mostly activators; 420,000 tested, 0.02% active; AID 602332; also: potency is read from the fitted curve at half-maximal effect; series mostly up to about 76 µM; % of control where 0% means no effect; nearly all actives have a fitted effect of over 35% in size
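Stably transfected U87-MG glioma cells carrying a GRP78-based luciferase sensor; 16 h compound incubation. Luminescence end-point read 10 min after Bright-Glo addition at room temperature.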
Nrf2 ARE act: activates Nrf2 signaling | AREc32 ARE-luciferase reporter (MCF7-derived line), luminescence, 24 h | Potency, µM (top dose mostly 46.1 µM), for inactives: at the top dose activation, hits mostly activators | 410,000 tested, 0.31% active; also: potency is read from the fitted curve at half-maximal effect; % of control where 0% means no effect; nearly all actives have a fitted effect of over 65% in size
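Each well held 1000 AREc32 cells, which were incubated with compound for 24 hr at 37 deg C after overnight attachment, and ARE reporter activity was quantified by firefly luciferase luminescence.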
Mito fusion act: mitochondrial division inhibition or fusion activation | S. cerevisiae fusion-defective mutant growth rescue, CellTiterGlo 48 h | Potency, µM (highest dose often 46.1 µM), for inactives: top-dose growth rescue (activation), hits mostly activators | 320,000 tested, 0.23% active; also: potency is read from the fitted curve at half-maximal effect; % of control where 0% means no effect; nearly all actives have a fitted effect of over 45% in size
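Read-out: ATP-based luminescence (CellTiterGlo, 10 min ambient) reporting growth of fusion-defective ts yeast after 48 hours at 37C on glycerol/ethanol YPEG medium in the presence of compound.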
miR-21 FLuc: raises the signal of a miR-21 reporter; 340,000 tested, under 10 active; HeLa miR-21 FLuc reporter, luciferase, 48 h; Potency, µM (series often up to 38.3 µM), for inactives: at the highest dose reporter change, positive = more light; active = well fitted rising curve with a large enough effect; inconclusive = small, poorly fitted or top-dose-only effect; inactive = no such curve, though single readings can be large or run the other way;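 further: % of control where 0% means no effect; miR-21 action dims this reporter so a rising signal means less miR-21 action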
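HeLa miR-21-FLuc reporter line, endogenous miR-21; 2000 cells/well in DMEM/10% FBS; compound titration up to ~40uM final, 48 h, 37 degree Celsius; luciferase detection reagent, 15 min lysis, CCD luminescence.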
Nrf2 inh: blocks Nrf2 signaling; A549 ARE-Fluc reporter, luciferase luminescence, 18-24 h; Potency, µM (series often up to 46 µM), inactives show top-dose activity change, negative = inhibition, actives largely listed as inhibitors; 360,000 tested, 2.1% active; AID 504444; also: potency is read from the fitted curve at half-maximal effect; % is scaled to controls: 0 for no effect and ±100 for the full control effect; nearly all actives have a fitted effect of over 60% in size
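Nrf2 function is reported as luminescence of an ARE-controlled luciferase in A549 cells. Compounds were tested at several concentrations, and a CellTiter-Fluor read on the same wells flagged cytotoxicity.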
A549 viability: kills or reduces viability of A549 cells in Nrf2 counter-screen; A549 ARE-Fluc cells, CellTiter-Fluor viability, 18-24 h; Potency, µM (top dose mostly 46 µM), for the others: top-dose activity change, negative = cytotoxicity, most hits filed as inhibitors; 390,000 tested, 0.16% active; AID 504648; also: potency is read from the fitted curve at half-maximal effect; % is scaled to controls: 0 for no effect and ±100 for the full control effect
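Cytotoxicity counterscreen: CellTiter-Fluor fluorescence was measured in A549 ARE_Fluc cells after 18-24 h of compound exposure in a concentration series. The subsequent BugLite luminescent read reports ARE-luciferase activity.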
* marks the source's active call; other numbers are inactive results; u = inconclusive; x = no result. Calls follow the shape of the dose curve; as a rule, active = well fitted curve in the direction sought with a large enough effect; inconclusive = small, poorly fitted or top-dose-only effect, or another doubt; inactive = no such curve, though single readings can be large; an effect the other way counts as inactive or inconclusive.

The first 4 compounds, to show the layout:
Below each compound: A549 viability, GRP78 ERSR act, miR-21 FLuc, Nrf2 ARE act, Mito fusion act, Nrf2 inh
COc1ccc(-c2nnnn2C)cc1S(=O)(=O)NCc1ccccc1
  4.6%, -0.8%, -4.4%, -0.1%, 0.8%, 2.0%
Cc1c(NC(=O)/C(C#N)=C/c2ccc(-c3ccc(Cl)cc3)o2)c(=O)n(-c2ccccc2)n1C
  23.1µM*, -4.2%, -1.6%, 10.2%, 22.9%, u
Cc1nn(Cc2ccc(Cl)c(Cl)c2)c(C)c1NC(=O)c1cc(CC(C)C)on1
  u, -4.3%, 15.1%, 2.6%, 2.4%, 8.2µM*
CCCc1cc(C(=O)Nc2c(C)nn(Cc3ccc(C)cc3)c2C)no1
  -3.0%, -0.4%, 28.4%, 4.0%, x, u

Results (from the top)
Below each compound: A549 viability, GRP78 ERSR act, miR-21 FLuc, Nrf2 ARE act, Mito fusion act, Nrf2 inh
COc1ccc(-c2nnnn2C)cc1S(=O)(=O)NCc1ccccc1
  4.6%, -0.8%, -4.4%, -0.1%, 0.8%, 2.0%
Cc1c(NC(=O)/C(C#N)=C/c2ccc(-c3ccc(Cl)cc3)o2)c(=O)n(-c2ccccc2)n1C
  23.1µM*, -4.2%, -1.6%, 10.2%, 22.9%, u
Cc1nn(Cc2ccc(Cl)c(Cl)c2)c(C)c1NC(=O)c1cc(CC(C)C)on1
  u, -4.3%, 15.1%, 2.6%, 2.4%, 8.2µM*
CCCc1cc(C(=O)Nc2c(C)nn(Cc3ccc(C)cc3)c2C)no1
  -3.0%, -0.4%, 28.4%, 4.0%, x, u
CCCc1cc(C(=O)Nc2c(C)nn(Cc3ccc(Cl)c(Cl)c3)c2C)no1
  -14.8%, -0.5%, 27.6%, 3.8%, x, 16.4µM*
Cc1ccccc1Cn1nc(C)c(NC(=O)c2cc(CC(C)C)on2)c1C
  4.1%, -0.8%, 10.1%, 0.5%, 2.2%, u
COCCN1Cc2cccc(C(=O)N3CCN(c4ccccc4)CC3)c2C1=O
  2.2%, -3.3%, -4.8%, 0.0%, -3.7%, 8.7%
C=CCNc1ncnc2c1[nH]c1ccc(Cl)cc12
  u, 0.8%, -9.0%, 17.5%, -2.7%, 8.2µM*
O=C1c2ccccc2C(=O)N1CCCCN(C(=O)c1ccc([N+](=O)[O-])cc1)c1ccc(Cl)cc1
  -19.9%, -4.3%, 6.8%, 0.2%, -1.5%, u
O=C1c2ccccc2C(=O)N1CCCCN(C(=O)c1cc([N+](=O)[O-])cc([N+](=O)[O-])c1)c1ccc(Cl)cc1
  -11.8%, -0.4%, -3.2%, -0.1%, -2.5%, 23.1µM*
O=C(NCC1CCCO1)c1cccc2c1C(=O)c1ccc(N3CCC(Cc4ccccc4)CC3)cc1S2(=O)=O (configuration not stated)
  -8.0%, -5.7%, x, -1.7%, x, 20.6µM*
CCN(CC)CCNc1ccc2nnc(CCNS(=O)(=O)c3ccc(C)cc3)n2n1
  7.3%, -6.2%, 4.1%, 3.7%, 4.4%, 6.1%
COc1ccc(N(CC(=O)NCCc2cccc(C)c2)S(=O)(=O)c2c(C)noc2C)cc1
  -0.2%, -9.7%, 5.4%, 0.4%, 4.7%, u
COc1ccc(N(CC(=O)Nc2cc(C)ccc2OC)S(=O)(=O)c2c(C)noc2C)cc1
  u, -1.2%, 19.5%, 0.2%, 5.5%, 8.2µM*
COc1ccc(N(CC(=O)NCCc2ccc(C)cc2)S(=O)(=O)c2c(C)noc2C)cc1
  -18.6%, -1.6%, -0.4%, 2.5%, 5.1%, 23.1µM*
O=C1C(Cc2ccccc2)Nc2ncnc(N3CCc4ccccc4C3)c2N1Cc1ccc(Cl)cc1 (configuration not stated)
  -12.4%, -1.1%, x, 5.5%, 10µM*, u
CC(C)CC1Nc2ncnc(N3CCCCC3)c2N(Cc2ccc(Br)cc2)C1=O (configuration not stated)
  -3.8%, 0.8%, x, -0.9%, 22.4µM*, -27.3%
CC(C)CC1Nc2ncnc(N3CCOCC3)c2N(Cc2ccc(Br)cc2)C1=O (configuration not stated)
  -2.2%, -5.1%, x, 0.6%, 7.8%, 12.4%
CCC1Nc2ncnc(N3CCc4ccccc4C3)c2N(Cc2ccc(Cl)cc2)C1=O (configuration not stated)
  3.1%, -1.2%, x, 10.6%, x, -8.6%
CN1c2ccsc2/C(=N/NC(=O)c2c(F)cccc2F)CS1(=O)=O
  2.6%, -6.9%, -2.0%, 0.0%, 0.0%, -5.8%
CN1c2ccsc2/C(=N/Nc2ccccc2)CS1(=O)=O
  -5.2%, 12.3%, -34.6%, 7.08µM*, -3.7%, u
COC(=O)CCN(C1CCCCC1)S(=O)(=O)c1ccc(S(=O)(=O)N2CCCCC2)cc1
  10.8%, -3.6%, -3.3%, -0.4%, 0.3%, -5.7%
Cc1cc(C)n(Cc2ccc(C(=O)Nc3cccc(Br)c3)o2)n1
  u, 4.7%, -11.7%, 0.3%, u, 23.1µM*
COc1ccc(NS(=O)(=O)c2cc(Cl)ccc2Cl)cc1S(=O)(=O)N1CCCCC1
  -10.7%, -3.1%, 5.2%, 0.3%, 3.1%, u
O=C(Nc1ccccc1)c1ccc(Cl)c(S(=O)(=O)Nc2ccccc2)c1
  -11.4%, 0.1%, 14.8%, 11.2%, x, u
Cc1ccccc1NS(=O)(=O)c1cc(C(=O)Nc2cccc(N(C)S(C)(=O)=O)c2)ccc1C
  u, -4.1%, 16.4%, 2.7%, -0.8%, 18.4µM*
Cc1ccc(C(=O)Nc2ccccc2)cc1S(=O)(=O)Nc1ccccc1
  -0.6%, -2.2%, 6.8%, 5.6%, x, u
Cc1ccc(SCCNC(=O)c2ccc(C)c(S(=O)(=O)Nc3ccccc3C)c2)cc1
  -16.6%, -2.7%, 24.6%, 2.3%, 13.5%, 13µM*
Cc1ccccc1NS(=O)(=O)c1cc(C(=O)NCc2ccco2)ccc1C
  -0.1%, -2.1%, -3.7%, 2.4%, -2.8%, 9.3%
CN(c1cccc(NC(=O)c2ccc(Cl)c(S(=O)(=O)Nc3ccccc3)c2)c1)S(C)(=O)=O
  -21.1%, 5.0%, 14.9%, 3.4%, 0.3%, 20.6µM*
COc1cc(NC(=O)COC(=O)c2[nH]c(C)c(C(C)=O)c2C)cc(OC)c1
  -17.1%, -0.7%, x, 5.8%, x, 13µM*
CCOC(=O)c1c(C)[nH]c(C(=O)OCC(=O)NC(C)(C)C)c1C
  -9.9%, 6.1%, 2.4%, 3.1%, 1.6%, 18.4µM*
CC(=O)c1c(C)[nH]c(C(=O)OCC(=O)Nc2ccc3c(c2)OCCO3)c1C
  -0.6%, -3.8%, x, 2.5%, x, 16.4µM*
CC(=O)c1c(C)[nH]c(C(=O)OCC(=O)Nc2cc(C)on2)c1C
  -6.5%, -6.8%, 1.2%, 2.8%, 0.3%, u
CC(=O)c1c(C)[nH]c(C(=O)OCC(=O)Nc2ccc(Cl)cc2[N+](=O)[O-])c1C
  -10.7%, -4.5%, u, 11.5%, -3.1%, 20.6µM*
CCOC(=O)c1[nH]c(C)c(C(=O)OCC(=O)NC(=O)NC(C)(C)C)c1C
  x, -0.5%, -10.5%, 0.0%, -4.0%, 10.2%
Cc1cc2oc(C(=O)N(Cc3ccccc3F)C3CCS(=O)(=O)C3)c(C)c2cc1Cl (configuration not stated)
  -5.8%, -3.9%, -3.3%, 1.0%, x, u
COC(=O)CN1C(=O)CSc2ccc(S(=O)(=O)Nc3cccc(C)c3)cc21
  10.2%, -3.1%, 5.5%, 0.2%, x, -19.1%
CCNc1nc(Cl)nc(NNC(=O)C(C)Oc2ccccc2)n1 (configuration not stated)
  7.5%, -5.8%, -0.6%, 4.1%, -11.0%, -9.0%
CCCNS(=O)(=O)c1ccc(CCC(=O)Nc2cc(Cl)ccc2Oc2ccccc2)cc1
  u, -4.3%, u, 3.3%, 26.9%, 16.4µM*

Screening data deposited in PubChem by National Center for Advancing Translational Sciences (NCATS).
